# In ChEMBL document CHEMBL1152794, “Synthesis and biological evaluation of a small molecule library of 3rd generation multidrug resistance modulators” (Bioorg Med Chem, 2009):
# Chains of the proteins cited; added tags and fusions are not shown.
# UniProt P08183, whole entry: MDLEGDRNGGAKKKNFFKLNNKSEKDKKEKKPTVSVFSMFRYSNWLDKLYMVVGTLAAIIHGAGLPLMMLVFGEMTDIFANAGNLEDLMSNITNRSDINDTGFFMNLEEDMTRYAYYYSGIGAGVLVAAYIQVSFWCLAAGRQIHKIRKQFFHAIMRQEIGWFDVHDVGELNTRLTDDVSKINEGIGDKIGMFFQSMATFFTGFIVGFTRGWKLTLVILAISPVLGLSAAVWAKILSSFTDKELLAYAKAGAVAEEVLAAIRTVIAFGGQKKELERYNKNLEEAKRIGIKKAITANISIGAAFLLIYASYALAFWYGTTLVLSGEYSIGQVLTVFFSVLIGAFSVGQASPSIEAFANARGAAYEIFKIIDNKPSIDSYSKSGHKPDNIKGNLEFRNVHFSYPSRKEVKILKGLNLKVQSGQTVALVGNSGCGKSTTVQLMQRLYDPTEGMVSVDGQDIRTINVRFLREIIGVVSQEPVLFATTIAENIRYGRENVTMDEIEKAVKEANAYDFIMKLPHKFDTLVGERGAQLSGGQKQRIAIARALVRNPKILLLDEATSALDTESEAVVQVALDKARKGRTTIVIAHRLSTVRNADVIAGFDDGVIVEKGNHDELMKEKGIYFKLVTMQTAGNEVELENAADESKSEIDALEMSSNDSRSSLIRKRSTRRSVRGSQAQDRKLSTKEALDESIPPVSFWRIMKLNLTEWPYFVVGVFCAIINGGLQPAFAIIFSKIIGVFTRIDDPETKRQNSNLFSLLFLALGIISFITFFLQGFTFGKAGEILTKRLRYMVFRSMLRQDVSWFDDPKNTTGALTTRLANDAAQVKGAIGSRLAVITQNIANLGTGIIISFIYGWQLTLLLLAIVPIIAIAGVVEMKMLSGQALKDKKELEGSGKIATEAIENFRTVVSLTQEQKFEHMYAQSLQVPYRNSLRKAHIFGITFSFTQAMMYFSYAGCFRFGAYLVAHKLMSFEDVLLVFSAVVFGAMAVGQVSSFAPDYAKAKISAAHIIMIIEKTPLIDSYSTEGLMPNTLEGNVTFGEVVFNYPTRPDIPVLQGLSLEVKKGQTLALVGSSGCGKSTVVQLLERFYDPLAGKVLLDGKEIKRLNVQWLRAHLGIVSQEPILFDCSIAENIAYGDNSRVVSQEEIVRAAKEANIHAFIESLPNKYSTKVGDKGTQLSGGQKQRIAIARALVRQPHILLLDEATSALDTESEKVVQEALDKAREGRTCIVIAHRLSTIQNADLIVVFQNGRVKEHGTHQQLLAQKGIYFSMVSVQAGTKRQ
# Molecular target: ATP-dependent translocase ABCB1 (Homo sapiens, UniProt P08183)
# Experiment: Inhibition of P-glycoprotein-mediated multidrug resistance in adriamycin-resistant human A2780/ADR cells by calcein AM assay
# Format: cell-based
row,IC50 [µM],Structure (SMILES)
1,9.9,Nc1ccccc1C(=O)Nc1ccc(CCN2CCc3ccccc3C2)cc1
2,2.4,COc1cc2c(cc1OC)CN(CCc1ccc(NC(=O)c3ccc(Br)cc3)cc1)CC2
3,0.43,O=C(Nc1ccc(CCN2CCc3ccccc3C2)cc1)c1cnc2ccccc2c1
4,13,COc1cc2c(cc1OC)CN(CCc1ccc(NC(=O)c3cc(OC)c(OC)cc3[N+](=O)[O-])cc1)CC2
